Tested on: B16-EGFR-SIY melanoma cells
Test: B16-EGFR-SIY melanoma model in mice, immunoconjugate in combination with oxiplatin
Conditions: oxiplatin 15 mg/kg tail vein day 7; immunoconjugate 0.5 mg/kg i.p. day 7, 10, 14; 5 mice per group

Question: oxaliplatin [oxiplatin] was tested. Which “death of mice due to toxicity” value did it give?
Answer: all of the mice in Group oxiplatin and Group Fc9-(IL10)2 and oxiplatin were dead after 14 days
